GIV-Gai inh: inhibitors of GIV peptide binding to Galpha-i3, primary screen, biochemical, fluorescence polarization, FITC-GIV GBA peptide, rat Galphai3. Guanine nucleotide-binding protein G(i) subunit alpha-3 (Rattus norvegicus), P08753. 90 min; stronger effect = lower value; scaled: aluminum fluoride 0%, vehicle 100%. percent of control (FP), % (test concentration not listed). hit rate 0.42% among 210,000. AID 1224905, 2016;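 active = replicate mean at 85% of control or lower, very high polarization wells dropped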;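 note: wells of about 15 µL received 100 nL stock; the first replicate is given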
HCMV UL50-53 inh: inhibitors of HCMV UL50-UL53 interaction, biochemical, HTRF. AID 1918969, 2023. normalized percent inhibition. 190,000 compounds, 0.15% hits. inhibition, % (no concentration beside the values); in the data active = inhibition above about 27%, passing the limit was not always enough
GIV Gai FP conf: inhibitors of GIV peptide binding to Galpha-i3, confirmation, biochemical, fluorescence polarization, FITC-GIV peptide, rat Galphai3 | shares compounds with GIV-Gai inh | stronger effect = lower value | fluorescence polarization, mP at 100 µM | 580 compounds, 38% hits | AID 1259350, 2017;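 active = inhibition score of 15 or more, meaning 100 minus mean polarization as percent of control over three replicates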
GIV-Gai AS conf: inhibitors of GIV binding to Galpha-i3, confirmation, orthogonal assay for GIV-Galpha-i inhibitor project, biochemical, AlphaScreen, His-GIV, GST-Galphai3 | 580 compounds, 39% hits | AlphaScreen counts at 100 µM | shares compounds with GIV-Gai inh | AID 1259351, 2017 | purified proteins, 90 min; stronger effect = lower value;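 active = inhibition score at or above a set limit, where the score is 100 minus the three-replicate mean percent of control signal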
An asterisk follows results filed as active. Sampled rows, rich in hits. Any-hit rate of the full collection: about 0.46%.

Amino acid sequences for entries named in this document (tags omitted).
Guanine nucleotide-binding protein G(i) subunit alpha-3 (Rattus norvegicus), P08753, UniProt P08753, whole entry, looked up: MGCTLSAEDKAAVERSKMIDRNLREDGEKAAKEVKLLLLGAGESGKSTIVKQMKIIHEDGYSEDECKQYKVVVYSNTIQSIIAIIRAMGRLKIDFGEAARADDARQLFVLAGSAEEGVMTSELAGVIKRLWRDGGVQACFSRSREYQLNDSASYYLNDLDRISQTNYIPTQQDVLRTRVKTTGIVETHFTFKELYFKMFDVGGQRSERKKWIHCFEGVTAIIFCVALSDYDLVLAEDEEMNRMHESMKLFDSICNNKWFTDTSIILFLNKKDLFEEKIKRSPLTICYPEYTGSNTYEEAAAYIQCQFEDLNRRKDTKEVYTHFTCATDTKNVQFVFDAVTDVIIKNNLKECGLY

The opening 2 entries as a preview:
What do the screens show for `CCOC(=O)c1ccccc1Nc1nc2ccc(C)cc2n2nnnc12`?
GIV-Gai inh: 107; HCMV UL50-53 inh: -6

Results for COc1ccccc1Nc1nc2ccc(C)cc2n2nnnc12 ?
GIV-Gai inh: 74*; HCMV UL50-53 inh: -19; GIV Gai FP conf: 69; GIV-Gai AS conf: 51081

All compounds of this part, repeating the preview:
What do the screens show for `CCOC(=O)c1ccccc1Nc1nc2ccc(C)cc2n2nnnc12`?
GIV-Gai inh: 107; HCMV UL50-53 inh: -6

Results for COc1ccccc1Nc1nc2ccc(C)cc2n2nnnc12 ?
GIV-Gai inh: 74*; HCMV UL50-53 inh: -19; GIV Gai FP conf: 69; GIV-Gai AS conf: 51081

What do the screens show for `COc1ccc(OC)c(/C=C2/N=C(c3ccc(OC)c(Br)c3)OC2=O)c1`?
GIV-Gai inh: 124

What do the screens show for `NC(=O)C[n+]1ccc(/C=N/O)cc1`?
GIV-Gai inh: 108; HCMV UL50-53 inh: -80

Results for NC(=O)C[n+]1cccc2ccccc21 ?
GIV-Gai inh: 80*; GIV Gai FP conf: 48*; GIV-Gai AS conf: 5016*

How did CNc1nc(C(N)=O)c(NC(=O)CSc2ccccc2)s1 do in these assays?
GIV-Gai inh: 107

Results for Nc1c2c(nn1-c1ccccc1)CC(=O)NC2=O ?
GIV-Gai inh: 60*; HCMV UL50-53 inh: 71*; GIV Gai FP conf: 47*; GIV-Gai AS conf: 31739*

Results for O=C1CN(c2ccccc2)C(=O)N1 ?
GIV-Gai inh: 100

How did C=CCSc1nn2c(=O)c(C)nnc2s1 do in these assays?
GIV-Gai inh: 107

Results for CCc1c(C)c(C#N)c2nc3ccccc3n2c1N1CCCC1 ?
GIV-Gai inh: 101; HCMV UL50-53 inh: -10

How did CCc1c(C)c(C#N)c2nc3ccccc3n2c1-n1nc(C)cc1C do in these assays?
GIV-Gai inh: 86; HCMV UL50-53 inh: -41; GIV Gai FP conf: 75; GIV-Gai AS conf: 35204

How did CCN(CC)c1nc2ccccc2n(CC(=O)Nc2ccc(F)cc2F)c1=O do in these assays?
HCMV UL50-53 inh: -25

How did Cc1cc2nc3[nH]c(=O)[nH]c(=O)c3nc2cc1C do in these assays?
HCMV UL50-53 inh: -112

Results for CN(C)c1ccc2nc3c(=O)[nH]c(=O)[nH]c3nc2c1 ?
GIV-Gai inh: 77*; GIV Gai FP conf: 33*; GIV-Gai AS conf: 14401*

Results for O=c1[nH]c(=O)c2nc3ccc(Cl)cc3nc2[nH]1 ?
GIV-Gai inh: 103

Sorted by length of the SMILES (smallest number first): some entries from above
Results for O=C1CN(c2ccccc2)C(=O)N1 ?
GIV-Gai inh: 100

How did C=CCSc1nn2c(=O)c(C)nnc2s1 do in these assays?
GIV-Gai inh: 107

What do the screens show for `NC(=O)C[n+]1ccc(/C=N/O)cc1`?
GIV-Gai inh: 108; HCMV UL50-53 inh: -80

Other compounds follow.
How did Cc1cc2nc3c(=O)[nH]c(=O)[nH]c3nc2cc1N do in these assays?
GIV-Gai inh: 64*; GIV Gai FP conf: 46*; GIV-Gai AS conf: 30002*

What do the screens show for `CCOc1ccc2c(CC)cc(=O)oc2c1C`?
GIV-Gai inh: 101; HCMV UL50-53 inh: -10

How did Nc1c(C(=O)N2CCc3ccccc32)sc2nc(C(F)(F)F)c3c(c12)CCCC3 do in these assays?
GIV-Gai inh: 95; GIV Gai FP conf: 75; GIV-Gai AS conf: 39316

What do the screens show for `O=C(c1sc2ccccc2c1Cl)N1CCc2ccccc21`?
HCMV UL50-53 inh: 5

What do the screens show for `Cc1cc(N2CC(C)CC(C)C2)nc2ccc(NC(=O)CCC(=O)N3CCCC3)cc12` (stereo unspecified)?
GIV-Gai inh: 102

What do the screens show for `Cc1ccc(C2=NS(=O)(=O)N(C)C(C(=O)Nc3ccc(F)cc3F)=C2)cc1`?
GIV-Gai inh: 106; HCMV UL50-53 inh: -34

What do the screens show for `COc1ccc(OC)c(C2=NS(=O)(=O)N(C)C(C(=O)Nc3ccc(F)cc3F)=C2)c1`?
GIV-Gai inh: 95; HCMV UL50-53 inh: -21; GIV Gai FP conf: 80; GIV-Gai AS conf: 32539

What do the screens show for `Cc1noc2c1C(c1ccc(Br)cc1)C1=C(CCCC1=O)N2` (stereo unspecified)?
GIV-Gai inh: 105; HCMV UL50-53 inh: -17

How did O=C(Nc1cccc2nsnc12)c1nc2ccccc2nc1N1CCCC1 do in these assays?
GIV-Gai inh: 100; HCMV UL50-53 inh: -37

Results for O=C(Nc1cccc2nsnc12)c1nc2ccccc2nc1N1CCOCC1 ?
GIV-Gai inh: 28*; HCMV UL50-53 inh: -26; GIV Gai FP conf: 69; GIV-Gai AS conf: 40962

How did CS(=O)(=O)N(c1ccccc1)C1CSC1 do in these assays?
GIV-Gai inh: 100; HCMV UL50-53 inh: -29

How did Cc1cccc(NC(=O)c2sc3nc4c(cc3c2N)CN(Cc2ccccc2)CC4)c1 do in these assays?
GIV-Gai inh: 100; HCMV UL50-53 inh: -22

Results for Nc1c(C(=O)Nc2cccc(Cl)c2)sc2nc3c(cc12)CN(Cc1ccccc1)CC3 ?
GIV-Gai inh: 79*; HCMV UL50-53 inh: -44; GIV Gai FP conf: 81; GIV-Gai AS conf: 31968

How did COc1ccccc1NC(=O)c1sc2nc3c(cc2c1N)CCCCCC3 do in these assays?
GIV-Gai inh: 104; HCMV UL50-53 inh: -22

How did COc1ccc(NC(=O)c2sc3nc4c(cc3c2N)CCCCCC4)cc1OC do in these assays?
GIV-Gai inh: 80*; HCMV UL50-53 inh: -47; GIV Gai FP conf: 81; GIV-Gai AS conf: 34749

What do the screens show for `COc1ccc(CCNC(=O)CN2C3CCCC2CC(=O)NC3)cc1OC` (stereo unspecified)?
GIV-Gai inh: 106; HCMV UL50-53 inh: -4

What do the screens show for `COc1ccc(-c2nc(CN3CCN(S(C)(=O)=O)CC3)c(C)o2)cc1`?
GIV-Gai inh: 103; HCMV UL50-53 inh: -28

What do the screens show for `Nc1nc2c3cccc4cccc(c(=O)n2n1)c43`?
GIV-Gai inh: 80*; HCMV UL50-53 inh: -120; GIV Gai FP conf: 75; GIV-Gai AS conf: 24808

What do the screens show for `Cc1cc2nc3c4cccc5cccc(c(=O)n3c2cc1C)c54`?
GIV-Gai inh: 101

How did Cc1cccc(N2CC(c3nc4ccccc4n3C)CC2=O)c1 (stereo unspecified) do in these assays?
HCMV UL50-53 inh: 1

What do the screens show for `O=C1N=c2ccccc2=C1N=Nc1c(O)[nH]c2ccccc12`?
GIV-Gai inh: 57*; HCMV UL50-53 inh: -42; GIV Gai FP conf: 51*; GIV-Gai AS conf: 9884*

What do the screens show for `O=C1CSC(N=Nc2c(O)[nH]c3ccccc23)=N1`?
GIV-Gai inh: 110; HCMV UL50-53 inh: -84

Results for CC(C)(C)NC(=O)C1CC2CCCC(C1)C2=O (stereo unspecified) ?
HCMV UL50-53 inh: -35

How did CC(C)CNC(=O)c1cnn2c(C(F)(F)F)cc(-c3ccc(Br)cc3)nc12 do in these assays?
GIV-Gai inh: 94; HCMV UL50-53 inh: 6

Results for O=C(NO)c1ccc(C(F)(F)F)cc1 ?
HCMV UL50-53 inh: -10

How did O=C(NCCc1ccccc1)c1ccccn1 do in these assays?
HCMV UL50-53 inh: -34

Results for Cc1ccc(C(=O)NC2(O)C(=O)c3ccccc3C2=O)cc1C ?
GIV-Gai inh: 57*; HCMV UL50-53 inh: 59*; GIV Gai FP conf: 45*; GIV-Gai AS conf: 46487

How did Cc1ccc(C(=O)O)cc1NC1(c2ccccc2)C(=O)c2ccccc2C1=O do in these assays?
GIV-Gai inh: 98

What do the screens show for `O=C(NC1(O)C(=O)c2ccccc2C1=O)c1ccc(C(F)(F)F)cc1`?
GIV-Gai inh: 56*; HCMV UL50-53 inh: 58*; GIV Gai FP conf: 61; GIV-Gai AS conf: 32539

How did O=C(Cc1ccccc1)NC1(O)C(=O)c2ccccc2C1=O do in these assays?
GIV-Gai inh: 61*; HCMV UL50-53 inh: 50*; GIV Gai FP conf: 52*; GIV-Gai AS conf: 45267

How did O=C(O)CNC(=O)Cc1ccccc1 do in these assays?
GIV-Gai inh: 104; HCMV UL50-53 inh: -15

Compound activity deposited in PubChem BioAssay by ICCB-Longwood Screening Facility, Harvard Medical School.
